Laboratory results from PubChem BioAssay AID652115 (Broad Institute, 2013).
Only a part is listed here, and it is no random draw. Activity calls are given as the source filed them. Rule as the data show it: active = inhibition above about 15%; inconclusive = no clear call, values can overlap the other calls; inactive = below that.

Chains of the proteins cited; added tags and fusions are not shown.
UniProt Q9NXA8, whole entry: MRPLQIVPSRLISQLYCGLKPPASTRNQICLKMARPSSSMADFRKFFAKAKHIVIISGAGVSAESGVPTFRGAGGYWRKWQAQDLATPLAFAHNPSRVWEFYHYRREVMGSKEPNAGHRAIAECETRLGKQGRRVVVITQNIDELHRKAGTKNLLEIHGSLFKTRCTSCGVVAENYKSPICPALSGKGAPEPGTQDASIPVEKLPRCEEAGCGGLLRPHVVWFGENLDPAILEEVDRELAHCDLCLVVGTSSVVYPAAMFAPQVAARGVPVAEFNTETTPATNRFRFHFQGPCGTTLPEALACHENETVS

target: NAD-dependent protein deacylase sirtuin-5, mitochondrial (Homo sapiens) (UniProt Q9NXA8); experiment: blockers of sirtuin-5 deacylase activity – biochemical, fluorescence imaging, single point, set 5, primary screen (AID 652115); settings: Purified SirT5, succinyl-peptide AMC, trypsin-coupled fluorescence; at 15 µM; hits give high values

Compound	inhibition
CCc1ccc(OP(C)(=O)N2CCN(c3ccc([N+](=O)[O-])cc3)CC2)cc1 (centres undefined)	inactive: 1.77%
CP(=O)(NC(=O)Nc1ccccc1)Oc1ccccc1 (centres undefined)	inactive: 2.32%
CP(=O)(Oc1ccccc1)OC(c1ccccc1)C(F)(F)F (centres undefined)	inactive: -2.56%
CP(=O)(Nc1ccc(SC(F)(F)F)cc1)Oc1ccc(Cl)cc1 (centres undefined)	inactive: 0.851%
CP(=O)(Nc1ccccn1)Oc1ccc(Cl)cc1 (centres undefined)	inactive: -4.73%
CCOC(=O)c1ccc(NP(C)(=O)Oc2ccc(OC)cc2)cc1 (centres undefined)	inactive: 2.16%
O=[N+]([O-])c1cc([N+](=O)[O-])c(O)c([N+](=O)[O-])c1.c1ccc(Oc2ccncc2)cc1	inactive: 0.666%
CP(=O)(Nc1ccccc1Br)Oc1ccccc1 (centres undefined)	inactive: 0.985%
COc1ccccc1OP(C)(=O)Nc1ccccc1 (centres undefined)	inactive: -0.651%
O=[N+]([O-])c1ccc2c(c1)C=Nc1ccccc1O2	inactive: -0.831%
CC(C)(C)c1ccc(OP(C)(=O)Nc2ccc(SC(F)(F)F)cc2)cc1 (centres undefined)	inactive: 1.48%
Cc1cc(C)cc(OP(C)(N)=O)c1 (centres undefined)	inactive: -1.39%
COc1ccccc1OP(C)(=O)Nc1cc(Cl)ccc1C (centres undefined)	inactive: -6.06%
CCN(CC)CCCOC(=O)C(O)(c1ccccc1)c1ccccc1	inactive: -6.56%
COc1ccccc1-c1ccccn1.O=[N+]([O-])c1cc([N+](=O)[O-])c(O)c([N+](=O)[O-])c1	inactive: 0.914%
CCOC(=O)c1ccc(NP(C)(=O)Oc2cc(C)cc(C)c2)cc1 (centres undefined)	inactive: 2.38%
Cc1cc(C)cc(OP(C)(=O)Nc2ccc(C)cc2C)c1 (centres undefined)	inactive: 6.68%
COc1ccccc1OP(C)(=O)Nc1cccc(Br)c1 (centres undefined)	inactive: -0.535%
CP(=O)(Nc1cccc(Br)c1)Oc1ccccc1 (centres undefined)	inactive: 3.16%
O=C(O)c1cccc(Nc2c([N+](=O)[O-])cc([N+](=O)[O-])cc2[N+](=O)[O-])c1	inactive: 6.58%
CCOC(=O)C(CC)C1=NC(C)(C)Cc2ccccc21.O=[N+]([O-])c1cc([N+](=O)[O-])c(O)c([N+](=O)[O-])c1 (centres undefined)	inactive: 7.97%
O=[N+]([O-])c1cc([N+](=O)[O-])c(Nc2nnnn2CCO)c([N+](=O)[O-])c1	inactive: 4.18%
CN1CCCCC1COC(=O)C1(O)c2ccccc2CCc2ccccc21 (centres undefined)	inactive: -2.26%
CN(Cc1cccnc1)C(=O)COc1ccc(Cl)c(Cl)c1.O=[N+]([O-])c1cc([N+](=O)[O-])c(O)c([N+](=O)[O-])c1	inactive: 0.831%
